This is an account of results in patent US11618753B2 (priority 2018, dated 2023).

Sequences of proteins named here, by UniProt entry; tags and fusion partners are left off. A change or cut given only in a name is not applied to a line headed by its entry. Residues count along the entry.
UniProt Q13546, 1-324: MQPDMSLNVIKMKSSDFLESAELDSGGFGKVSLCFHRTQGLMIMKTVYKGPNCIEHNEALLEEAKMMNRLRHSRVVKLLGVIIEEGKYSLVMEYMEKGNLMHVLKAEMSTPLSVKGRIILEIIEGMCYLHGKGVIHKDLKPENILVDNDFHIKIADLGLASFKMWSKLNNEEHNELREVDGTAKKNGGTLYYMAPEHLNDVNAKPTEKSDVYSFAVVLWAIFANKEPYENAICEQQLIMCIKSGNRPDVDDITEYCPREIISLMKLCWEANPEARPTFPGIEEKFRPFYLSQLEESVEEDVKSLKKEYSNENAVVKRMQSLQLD
UniProt O00329: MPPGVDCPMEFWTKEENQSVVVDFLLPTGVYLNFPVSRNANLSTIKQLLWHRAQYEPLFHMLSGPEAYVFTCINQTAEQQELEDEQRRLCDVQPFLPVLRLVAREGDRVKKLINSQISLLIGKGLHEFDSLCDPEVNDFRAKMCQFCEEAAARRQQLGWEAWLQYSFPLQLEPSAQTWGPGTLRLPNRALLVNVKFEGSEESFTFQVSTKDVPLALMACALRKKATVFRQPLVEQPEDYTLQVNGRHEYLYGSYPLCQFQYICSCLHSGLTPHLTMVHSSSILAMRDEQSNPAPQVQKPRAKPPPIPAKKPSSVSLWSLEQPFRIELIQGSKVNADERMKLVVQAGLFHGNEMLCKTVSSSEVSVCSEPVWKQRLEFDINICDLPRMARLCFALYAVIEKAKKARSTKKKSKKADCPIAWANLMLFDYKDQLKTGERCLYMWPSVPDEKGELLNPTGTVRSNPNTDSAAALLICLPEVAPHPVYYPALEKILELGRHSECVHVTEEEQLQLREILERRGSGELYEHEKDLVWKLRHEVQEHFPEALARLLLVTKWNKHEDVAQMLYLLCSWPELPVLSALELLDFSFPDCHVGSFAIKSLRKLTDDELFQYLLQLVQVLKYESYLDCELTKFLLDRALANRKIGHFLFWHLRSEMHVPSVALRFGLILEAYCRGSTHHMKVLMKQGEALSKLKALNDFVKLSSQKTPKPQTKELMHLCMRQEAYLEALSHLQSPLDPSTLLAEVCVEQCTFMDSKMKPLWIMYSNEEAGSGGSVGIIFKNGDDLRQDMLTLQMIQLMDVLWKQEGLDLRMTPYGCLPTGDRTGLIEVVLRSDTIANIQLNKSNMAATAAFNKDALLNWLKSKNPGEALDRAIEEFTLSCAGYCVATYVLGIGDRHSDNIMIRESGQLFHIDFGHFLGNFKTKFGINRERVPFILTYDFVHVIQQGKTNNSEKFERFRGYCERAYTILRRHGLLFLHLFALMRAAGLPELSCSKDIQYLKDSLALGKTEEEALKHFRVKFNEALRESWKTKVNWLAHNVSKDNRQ

Assay [1] concerns the target His-GST-TVMV-hRIPK1(1-324) (Homo sapiens (Human), UniProt Q13546). As to the kind of experiment: biochemical. The conditions noted are these: HTRF Binding Assay (IC50, uM).
Assay [2] deals with T1, GST-tagged PIK3Cδ in complex with PIK3R1 (Homo sapiens (Human), UniProt O00329).
Assay [3] addresses T1, GST-tagged PIK3Cδ in complex with PIK3R1. As to the kind of experiment: biochemical.

In general, IC50 refers to the midpoint of a concentration-inhibition curve. Read a low IC50 as inhibition by little substance. Consider `Cc1ncc(-c2cc(C(F)(F)F)c3c(N)ncnn23)cc1C(=O)NCCC(C)c1ccccc1` (centres unmarked) [Example 171, 5-[4-amino-5-(trifluoromethyl)pyrrolo[2,1-f][1,2,4]triazin-7-yl]-2-methyl-N-(3-phenylbutyl)pyridine-3-carboxamide], for which the results for the IC50 in assay [1] and in assay [3] were 0.0024 µM and 280 nM, respectively. Also, the “RIPK1 Selectivity (x fold) >100 x” value in assay [2] is “x (key: >100 x)”.

In the case of `COc1ncc(-c2cc(CN3CCC(F)(F)CC3)c3c(N)ncnn23)cc1C(=O)NC1CN(S(=O)(=O)C(C)C(F)(F)F)C[C@@H]1F` (stereo partly drawn) [Example 1543, 5-{4-amino-5-[(4,4-difluoropiperidin-1-yl)methyl]pyrrolo[2,1-f][1,2,4]triazin-7-yl}-N-[(3R,4S)-4-fluoro-1-(1,1,1-trifluoropropane-2-sulfonyl)pyrrolidin-3-yl]-2-methoxypyridine-3-carboxamide], in assay [2], the “RIPK1 Selectivity (x fold) >100 x” value is on record as “x (key: >100 x)”. This compound registered an IC50 in assay [3] greater than 15000 nM.
